Biological target: Human Full Length PARG (Homo sapiens (Human), UniProt Q86W56)
Experiment: PARG enzyme assay (TR-FRET)
Type: biochemical
Conditions: read-out: PARG Biochem IC50 Geomean

Amino acid sequences for entries named in this document (tags omitted). A change or cut given only in a name is not applied to a line headed by its entry.
UniProt Q86W56: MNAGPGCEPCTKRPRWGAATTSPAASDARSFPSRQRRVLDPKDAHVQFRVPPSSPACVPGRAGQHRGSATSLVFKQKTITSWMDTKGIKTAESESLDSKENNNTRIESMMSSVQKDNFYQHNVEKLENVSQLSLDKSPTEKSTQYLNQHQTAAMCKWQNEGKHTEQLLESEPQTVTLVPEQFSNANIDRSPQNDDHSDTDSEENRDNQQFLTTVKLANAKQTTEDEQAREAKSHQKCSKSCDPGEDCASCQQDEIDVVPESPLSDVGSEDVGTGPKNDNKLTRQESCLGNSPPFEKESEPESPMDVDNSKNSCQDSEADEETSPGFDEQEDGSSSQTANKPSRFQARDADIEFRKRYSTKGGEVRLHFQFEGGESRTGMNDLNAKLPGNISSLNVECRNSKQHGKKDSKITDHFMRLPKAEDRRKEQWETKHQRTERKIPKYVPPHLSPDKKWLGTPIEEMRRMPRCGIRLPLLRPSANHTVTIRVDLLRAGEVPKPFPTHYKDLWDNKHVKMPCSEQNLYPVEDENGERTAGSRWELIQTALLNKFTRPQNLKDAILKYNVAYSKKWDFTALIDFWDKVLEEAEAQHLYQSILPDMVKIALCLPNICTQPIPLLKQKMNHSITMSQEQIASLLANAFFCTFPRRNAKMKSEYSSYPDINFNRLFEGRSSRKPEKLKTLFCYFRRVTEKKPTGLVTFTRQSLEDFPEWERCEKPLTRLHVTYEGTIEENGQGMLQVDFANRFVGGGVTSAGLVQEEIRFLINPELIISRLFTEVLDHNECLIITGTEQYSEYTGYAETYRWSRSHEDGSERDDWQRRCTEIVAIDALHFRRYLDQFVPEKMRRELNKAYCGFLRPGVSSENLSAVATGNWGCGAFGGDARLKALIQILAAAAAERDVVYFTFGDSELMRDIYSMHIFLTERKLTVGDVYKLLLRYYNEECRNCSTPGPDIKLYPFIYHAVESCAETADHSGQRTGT

IC50: 134 nM
SMILES: CCn1c(=O)n(Cc2cnn(C)c2)c(=O)c2cc(S(=O)(=O)NC3(C)CC3)ccc21 [Example 291]

— patent US10239843B2 (CANCER RESEARCH TECHNOLOGY LIMITED, priority 2014, dated 2019)
